Molecular target: T1, Aldo-keto reductase family 1 member C4 (Homo sapiens, UniProt P17516)
T1 sequence (P17516 whole entry): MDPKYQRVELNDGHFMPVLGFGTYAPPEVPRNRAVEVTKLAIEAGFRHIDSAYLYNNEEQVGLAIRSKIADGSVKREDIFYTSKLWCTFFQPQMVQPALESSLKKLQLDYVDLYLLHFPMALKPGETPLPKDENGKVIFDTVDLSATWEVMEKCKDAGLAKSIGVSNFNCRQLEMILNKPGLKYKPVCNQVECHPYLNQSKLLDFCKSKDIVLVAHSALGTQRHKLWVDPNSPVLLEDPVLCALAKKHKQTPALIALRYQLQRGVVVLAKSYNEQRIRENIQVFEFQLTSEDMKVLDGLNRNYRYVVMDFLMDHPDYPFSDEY
Assay: Inhibition of recombinant AKR1C4 using S-tetralol as substrate by fluorimetry
Method in brief: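 Continuous NADP+-dependent oxidation of S-tetralol, read as NADPH fluorescence at 340/460 nm. Buffer was 100 mM phosphate pH 7.0 with 200 µM NADP+ and 4% DMSO. […] Enzyme was 111, 86, 95 and 184 nM respectively. Initial velocities were fitted to give IC50. Mean of two independent experiments.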

IC50: 32.3 µM
Structure (SMILES): O=C(Nc1ccc([N+](=O)[O-])cc1C(=O)O)c1cccc(O)c1

Source: ChEMBL document CHEMBL2069201, “N-Benzoyl anthranilic acid derivatives as selective inhibitors of aldo-keto reductase AKR1C3” (Bioorg Med Chem Lett, 2012)
